Measurements taken from PubChem BioAssay AID938 (National Center for Advancing Translational Sciences (NCATS), 2007).
The entries are a selection whose mix differs from that of the whole data set. Records with an inconclusive call do not appear. Active and inactive are the calls of the source. Calls follow the shape of the dose curve; as a rule, active = well fitted activation curve with a large enough effect; inconclusive = small, poorly fitted or top-dose-only effect; inactive = no such curve, though single readings can be large or run the other way.

assay: qHTS Assay for Agonists of the Thyroid Stimulating Hormone Receptor: Activators of Intracellular cAMP Concentrations in Parental HEK 293; settings: parental HEK293 CNG cAMP sensor, membrane potential fluorescence; at 57.1 µM unless noted; also: % of control where 0% means no effect; nearly all actives have a fitted effect of over 55% in size

Structure (SMILES)	activation
COc1ccc(NC2CCN(CCc3ccccc3)CC2)c(OC)c1	inactive: -14.7%
O=C(OC1CN2CCC1CC2)C1c2ccccc2Oc2ccccc21 (stereo not given)	inactive: 22.3%
NC1CCCCC1.NP(=O)(O)N(CCCl)CCCl	inactive: 1.5% [at 11.4 µM]
CCOP(=O)(Cl)Cl	inactive: -1.35%
N#CC1(Nc2ccccc2)CCN(CCc2ccccc2)CC1	inactive: 11.2%
ClCCOP(OCCCl)OCCCl	inactive: 20.5%
N/C(=N\O)c1c(N)no[n+]1[O-]	inactive: 2.04%
CCC(CO)(C(=O)OC1CN2CCC1CC2)c1ccccc1 (stereo not given)	inactive: 4.3%
O=C(O)C1(Nc2ccccc2)CCN(Cc2ccccc2)CC1	inactive: -8.6% [at 11.4 µM]
Fc1ccccc1NC1CCN(Cc2ccccc2)CC1	inactive: 15.9%
